# Laboratory results taken from patent US9447092B2, “Pharmaceutically active compounds” (CANCER RESEARCH TECHNOLOGY LIMITED, priority 2012, dated 2016).
# The chains behind the UniProt entries cited, without tags or fusion partners. Where a name states a change or a piece, a line headed by the entry shows the natural chain unless it says otherwise.
# UniProt P33261, whole entry: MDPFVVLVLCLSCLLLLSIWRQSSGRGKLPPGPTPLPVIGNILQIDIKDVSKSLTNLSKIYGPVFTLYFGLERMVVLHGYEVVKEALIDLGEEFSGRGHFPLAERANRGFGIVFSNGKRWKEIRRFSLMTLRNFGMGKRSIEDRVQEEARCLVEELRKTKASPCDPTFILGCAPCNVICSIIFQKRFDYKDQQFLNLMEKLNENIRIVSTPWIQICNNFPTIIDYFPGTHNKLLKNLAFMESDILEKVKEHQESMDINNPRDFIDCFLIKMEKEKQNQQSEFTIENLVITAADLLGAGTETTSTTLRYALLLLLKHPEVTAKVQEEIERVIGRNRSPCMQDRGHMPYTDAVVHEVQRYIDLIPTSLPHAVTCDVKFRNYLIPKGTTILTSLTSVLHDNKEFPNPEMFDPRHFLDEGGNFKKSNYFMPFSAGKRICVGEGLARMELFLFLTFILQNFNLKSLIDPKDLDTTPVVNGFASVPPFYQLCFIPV
# UniProt O14965: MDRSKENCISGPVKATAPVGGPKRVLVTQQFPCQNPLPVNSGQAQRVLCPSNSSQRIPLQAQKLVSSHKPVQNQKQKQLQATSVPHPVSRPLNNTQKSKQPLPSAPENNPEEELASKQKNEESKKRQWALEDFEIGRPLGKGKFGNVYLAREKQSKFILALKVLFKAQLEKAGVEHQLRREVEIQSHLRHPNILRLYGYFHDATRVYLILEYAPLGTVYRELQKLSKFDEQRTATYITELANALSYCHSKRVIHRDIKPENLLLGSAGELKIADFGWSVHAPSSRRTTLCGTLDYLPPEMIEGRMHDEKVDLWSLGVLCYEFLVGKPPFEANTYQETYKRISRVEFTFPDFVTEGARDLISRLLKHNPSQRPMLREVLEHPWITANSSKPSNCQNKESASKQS
# Experiments:
# [1] = test system: MOLM-13 human FLT3-ITD positive AML cell line; assay: Cell viability assay, MOLM-13; type: cell-based; conditions: MOLM-13 FLT3-ITD positive AML cells
# [2] = test system: MV4-11 human FLT3-ITD positive AML cell line; assay: Cell viability assay, MV4-11; type: cell-based; conditions: MV4-11 FLT3-ITD positive AML cells
# CYP2C19 = CYP2C19 (Homo sapiens (Human), UniProt P33261); assay: Inhibition of CYP isozymes in human liver microsomes, CYP2C19
# Aurora-A = Aurora-A (Homo sapiens (Human), UniProt O14965); conditions: read-out: Aurora-A IC50; biochemical assay
Compound,GI50 [1],GI50 [2],IC50 (CYP2C19),IC50 (Aurora-A)
"Cc1nn(C)cc1-c1nc2c(N3CCN(Cc4ccc(Cl)cc4)CC3)c(Cl)cnc2[nH]1 [Example 1, 6-Chloro-7-(4-(4-chlorobenzyl)piperazin-1-yl)-2-(1,3-dimethyl-1H-pyrazol-4-yl)-3H-imidazo[4,5-b]pyridine]",104 nM,291 nM,10000 to 50000 nM,
"Cc1nc(CN2CCN(c3c(Cl)cnc4[nH]c(-c5cn(C)nc5C)nc34)CC2)no1 [Example 3, 3-((4-(6-Chloro-2-(1,3-dimethyl-1H-pyrazol-4-yl)-3H-imidazo[4,5-b]pyridin-7-yl)piperazin-1-yl)methyl)-5-methyl-1,2,4-oxadiazole]",,,,52 nM
